Experimental data published in patent US20040127467A1, “Synthesis of pancratistatin prodrugs” (priority 2003, published 2004).

Manganese pancratistatin 7-O-phosphate [2i]
water solubility (in words): poor water solubility
